# Measurements as given in patent US9242973B2, “Chromane compounds” (CoMentis, Inc., priority 2012, dated 2016).
# System: Aβ production in SK-N-BE(2) neuroblastoma cells
# Test: Test Example 3: Aβ production inhibition in cell (Aβ40 ELISA, SK-N-BE(2))
# Conditions: Homo sapiens, SKNBE2, 6 h, read-out: Test Example 3 IC50, SK-N-BE(2) cells, 6 hours, Aβ40 ELISA normalized by viability
row,Structure (SMILES),IC50 [nM]
1,NC1=NC2(CO1)c1cc(NC(=O)c3ncc(Cl)cc3F)ccc1OCC21CC1 (centres unmarked) [RP 29],22
2,C[C@H]1Oc2ccc(-c3cccnc3F)cc2[C@@]2(COC(N)=N2)C12COC2 (racemic) [RP 77],920
